Reference: publication PMC6828767

Target: glutathione S-transferase (GST)-CaBP1 (UniProt Q9NZU7)

With “higher-order α-synuclein oligomers larger than 100 kDa (wild-type α-synuclein incubated with dopamine) (from UniProt P37840 1-140) (complex)” the IAHP charge in neocortical pyramidal neurons with intracellular co-application of αSNo and CaBP1 (GST-CaBP1, 16 nM); the αSNo-mediated enhancement was reversed was 3 pC and the spike frequency during current steps in neocortical pyramidal neurons with intracellular co-application of αSNo and CaBP1 (GST-CaBP1, 16 nM); the αSNo-mediated reduction was reversed was 27.8 Hz.
